The text below walks through data of PMC7150766 (Viruses, 2020).

In the test the test system is splenocytes from CVB3-infected A/J mice. As to the kind of experiment: Proliferative response of splenocytes from CVB3-infected mice to VP1 epitopes. The class given is cell-based. The following applies: day 21 post-infection, peptide 2 days, then 3[H] thymidine 16 h, p ≤ 0.0001 for VP1 681–700 and VP1 721–740, Figure 4a.

Take “VNTFVHESLADVQA [RNase 43–56, bovine ribonuclease (RNase) 43–56, irrelevant control peptide]”: the “Proliferative response (in words)” value is “non-responsive”.
